Measured affinities in a library of Ab-14 light chain variants

Binding partner: SARS-CoV-2 spike HR2 peptide, sequence PDVDLGDISGINAS.

The variants keep the heavy chain, the linker and the frameworks of Ab-14 (scFv order VH, a (GGGGS)3 linker, VL).
VH: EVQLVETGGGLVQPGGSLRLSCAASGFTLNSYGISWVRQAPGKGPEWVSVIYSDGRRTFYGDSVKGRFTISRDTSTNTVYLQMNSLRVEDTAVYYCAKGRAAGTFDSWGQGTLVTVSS
VL: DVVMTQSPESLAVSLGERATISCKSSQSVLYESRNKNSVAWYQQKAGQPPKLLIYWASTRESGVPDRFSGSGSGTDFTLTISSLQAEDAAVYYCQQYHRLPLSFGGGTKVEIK

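Phage display of a naive human antibody library on the peptide gave the parent. This is the validation round: designs drawn from the data on random variants, tested in the same kind of assay. Several design methods are mixed in this list. Affinity was read by AlphaSeq, a pooled yeast mating assay with surface-displayed partners. After mating in shaken culture at 30 °C for 16 h, diploids were selected and their barcode pairs sequenced. Read counts were normalised to the haploid input and turned into Kd by a linear fit to BCL2-family pairs of known affinity, for each replicate. The assay was run in six technical replicates.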

The parent's light chain CDRs are KSSQSVLYESRNKNSVA, WASTRES, QQYHRLPLS; each variant's own CDRs replace them letter for letter.
Values are apparent Kd, the geometric mean of the replicates that gave a signal; lower means stronger binding.
An entry "no signal" has no value in the source: the pair was not observed among the diploids in any replicate. This suggests poor binding but is not conclusive.
A sequence that the file lists under several names has all its replicates pooled.

CDR-L1 | CDR-L2 | CDR-L3 | Kd | detected
KIGMSLNQLMHTKNNVA | DLVTREQ | QQYHRLPLS | 6.5 nM | 6 of 6
QLSWTSNQHSAGKDAVA | EAVHRDQ | QQYQRLPLT | 3.1 nM | 6 of 6
KLSQSNKYESRMKNSVA | NASQRMC | QQYHRLPLS | 730 pM | 6 of 6
KISQSVLYESRNKNSVA | YASSRES | QQYHRLPLS | 4.7 nM | 6 of 6
YLVQAADYYDSNYNNIA | NGRLRNE | QQYFHLPLT | no signal | 0 of 6
KISQSVLYESRNKNSVA | NASTREQ | QQYHRLPLS | 220 pM | 6 of 6
KLSQSVLYESRNKNSVA | QASTRSS | QQYHRLPLS | 700 pM | 6 of 6
FMRMECYGYQNYGNSIA | HANIRHN | QQYSRLPFS | 120 nM | 6 of 6
KSSQSVLYESRNKNSVA | WASTLEY | QQYHRLPLS | no signal | 0 of 6
KSEGSELYESRNKNSVA | NASMRES | QQYHRLPLS | 440 pM | 6 of 6
SLGLVTMLEYAGRNNVA | NNSTREA | QQYDRLPLS | 93 nM | 6 of 6
KLTEQLYNGERRPSSIA | AGVIGSD | QQYHQLPLI | 41 nM | 6 of 6
KLSQAVLYESRNKNSVA | DASTRES | QQYHRLPLS | 410 pM | 6 of 6
KSSQSVLYESRNKNSVA | WASTRES | QQKRRLPLS | no signal | 0 of 6
KSSQSHLYESRNKNSVA | GASTRES | QQYHRLPLS | 2.0 nM | 12 of 12
LSSQSVIYESRHMNSVA | WASTRES | QQYHRLPLS | no signal | 0 of 6
KESQSVLHEWRNKNSVA | DASTRMS | QQYHRLPLS | 1.2 nM | 6 of 6
KLRQSTLYESRNPNSVA | TASTRES | QQYHRLPLS | 920 pM | 6 of 6
KFSQSVDYLSRNMNNVA | NASTRES | QDYHRLPLS | 690 pM | 6 of 6
KLYQMTGLESHAKNSLA | DANRRED | QQYHRLPLS | 830 pM | 6 of 6
RLTNEFFKVSEHKNSVA | HADQRCM | QQYFTLPLI | 10 nM | 6 of 6
KVMQSMWYESRNQNSVA | HASMREQ | QQYHRLPLQ | 2.7 nM | 6 of 6
KSSDSNLYESRNKESVA | WASTRES | QQYHRLPLS | no signal | 0 of 6
KIQPDLQQSFASKNNVA | DRQLSAE | QQYNRLPLV | 8.4 nM | 5 of 6
KLSTSVLYESRNKNSVA | WASTRFS | QQYHRLPLS | 6.1 nM | 6 of 6
KLSQSWLYESRNKNSVA | NASTREM | QQYHRLPLS | 5.7 nM | 6 of 6
TLSQITGHMSMAKNNVA | EMETREN | QQYDRLPLS | 82 nM | 5 of 6
KLSQSDLYESRNKNSVA | HASTRES | QDYHRLPLS | 21 nM | 6 of 6
HILQNVMYESRNRNSVA | HQSTRED | QQYHSLPLS | 7.1 nM | 6 of 6
IVSQLMIWGMHAKNSIA | EAETRFN | QQYDRLPLF | no signal | 0 of 6
KFSQMVNTLSVSKSAVA | EMSTRPE | QQYNRLPLA | 140 nM | 6 of 6
KFSQSVLYESRNKNSVA | NASTRES | QDYHRLPLS | 820 pM | 6 of 6
KLSEFMRGLMLRKDSIA | DNNTRGS | QQYDRLPLS | 55 nM | 6 of 6
KVSQLDNGESRNHNSVA | HASTRLS | QQYHRLPLS | 3.2 nM | 6 of 6
KSSQSEYYEDANKMSVA | SASQRLS | QQYHRLPLS | 990 pM | 6 of 6
MMSMGYLQGMRAKNNVA | QEETREK | QQYHRLPLI | 20 nM | 6 of 6
KLSNSQEYESRWKNSVA | NASTREL | QQYHRLPLS | 2.3 nM | 6 of 6
KLSQSVLYESRNKNSVA | GASTRLS | QQYHRLPLS | 580 pM | 6 of 6
KSSQSVLYESMNKNSVA | WASTRNS | QQYARLPLS | 18 nM | 6 of 6
KISQAYLYEDRNKNSVA | NANTRES | QQYHRLPLS | 480 pM | 6 of 6
KLSVSWLFESIEKNSVA | ERSTRES | QDYNRLPLS | 6.4 nM | 6 of 6
KMSQSVDQESRNKNSVA | DASTRES | QQYHRLPLS | 1.2 nM | 6 of 6
MLSDLVKMGSRNTNSVA | DNSTRGS | QQYDRLPLA | 200 nM | 6 of 6
TISQMTSLFSQSINNVA | EVSTREP | QQYDRLPLV | 4.1 nM | 6 of 6
SLRHYFQGENGMRGSVA | NATIRDQ | QQYFRLPLF | 1.8 nM | 6 of 6
MISLCQNGYYQQNNSIA | DRNERAM | QQYGRLPLV | 500 nM | 4 of 6
KMNERYEMGENQQKSIA | NGAHLVH | QDYHRLPLG | 1.4 nM | 6 of 6
KYQELEPYESRNKNSVA | NASTRET | QQYHRLPLS | 1.2 nM | 6 of 6
KVDQEVDGQSRNKNSVA | DASTREW | QQYHRLPLS | 440 pM | 6 of 6
KLYQSELYESRNKNSVA | NASTRED | QQYHRLPLS | 440 pM | 6 of 6
MMSQVTGMGSRQRNNVA | QTSTREP | QQYDRLPLI | 3.3 nM | 6 of 6
KIMQSLNYESFNKNSVA | GQETRER | QSYHRLPLS | 400 nM | 6 of 6
IVSQLMLWGWHAKNSIA | EAQTRLH | QQYDRLPLF | 23 nM | 6 of 6
KSSQSVLYESRMKNSVA | WASTRES | QQYQRLPLS | 13 nM | 1 of 6
HVSYQLRPGREIQNPIA | EGSHRAA | QQYDRLPLG | 4.6 nM | 6 of 6
VLPDPTMRFDFQGNSIA | NAVARME | QQYERLPLT | 10 nM | 6 of 6
QLSLMLNDMDARMWNVA | EGNQLKA | QDYHRLPLH | no signal | 0 of 6
TLTQVTMVESYNKNSVA | QANTRLE | QDYHRLPLS | 140 nM | 6 of 6
KVSQSYLYEDRNKNSVA | NASTRES | QQYHRLPLS | 1.8 nM | 6 of 6
KLSQYVGYESRNKSRVA | DNSTRES | QQYDRLPLS | 300 nM | 6 of 6
KLSYSVPGESRNKNSVA | DAGTRES | QQYHRLPLS | 520 pM | 6 of 6
HISQMWMLESRNINNVA | EESTRED | QSYFRLPLS | 3.6 nM | 6 of 6
YISQSVLYEDRNKNSVA | NASTRMS | QQYHRLPLS | 570 pM | 6 of 6
KSLTSWLYESRNKNSVA | HASTREQ | QQYHRLPLS | 11 nM | 6 of 6
KSSQSVEAESRFKNSVA | WASTRES | QQYHRNPLS | no signal | 0 of 6
TISQMTSLFSMSINNVA | EVSTRET | QQYDRLPLA | 9.3 nM | 6 of 6
KIGDTLNQLMTKRNNVA | DLVTREN | QQYFRLPLS | 800 pM | 6 of 6
KSSQSVLYESANKNDVA | EASTRES | QVYHRIPLS | 10 nM | 6 of 6

A sequence measured in both rounds can read differently, since the two assays cover different ranges.
Nonspecific signal, from three strains lacking the peptide, appeared in 4% of pairings of all light chain designs, centred on 430 nM (5% of these signals below 38 nM); values are not corrected for it.
In the paper, a design with two or fewer of six values counts as a poor binder.
Of ten entries with the parent sequence, four were seen in most replicates (averages 2.2 nM to 240 nM), three in one and three in none, so single entries are noisy.

Values reported by Li et al. 2023, doi:10.1038/s41467-023-39022-2 (FLAb copy).